Measurements reported in patent US20260048036A1, “CRYSTALLINE FORMS OF A GLUCOSYLCERAMIDE SYNTHASE INHIBITOR AND USES THEREOF” (ACELINK THERAPEUTICS, INC., priority 2022, published 2026).

Test: Solubility at 37° C. in pH buffers and bio-relevant media
[1] = pH 6.8, 50 mM phosphate buffer, cells wrap: 'No form' + 'change', 'Amorphous' + 'form'

Compound	XRPD (24 h) of residual solids [1]	XRPD (24 h) of residual solids (FaSSIF-V1, pH 6.5, cell wraps: 'No form' + 'change')	XRPD (24 h) of residual solids (Water, cell wraps: 'No form' + 'change')	XRPD (24 h) of residual solids (pH 4.5, 50 mM acetate buffer, cell wraps: 'No form' + 'change')
O=C(N[C@H](CN1CCCC1)[C@H](O)c1ccc(OC2CC2)c(Cl)c1)/C(=N/O)c1ccc2cc(Cl)ccc2c1.O=C(O)C[C@H](O)C(=O)O	Amorphous			
O=C(N[C@H](CN1CCCC1)[C@H](O)c1ccc(OC2CC2)c(Cl)c1)/C(=N/O)c1ccc2cc(Cl)ccc2c1.O=C(O)C(O)C(O)C(=O)O	Amorphous			
O=C(N[C@H](CN1CCCC1)[C@H](O)c1ccc(OC2CC2)c(Cl)c1)/C(=N/O)c1ccc2cc(Cl)ccc2c1 [Crystalline Form A of Compound 1]	No form	No form	No form	No form
